Results taken from patent US20100184601A1, “Method and Means Relating to Multiple Herbicide Resistance in Plants” (University of Durham, priority 2007, published 2010).
Only a part of the results on these compounds is given; other tests are left out.

Test system: MHR black-grass plants
Assay: Phytotoxicity screen: compound pre-treatment of MHR black-grass followed by chlortoluron, scored for phytotoxic injury
Format: in vivo, black-grass (Alopecurus myosuroides)
Settings: compound at 80 g a.i. ha^−1 on 14 day old MHR black-grass; chlortoluron 500 g a.i.ha^−1 48 h later; scored after 10 days

| Compound | Score (phytotoxic injury) |
| --- | --- |
| O=[N+]([O-])c1cc([N+](=O)[O-])c2no[n+]([O-])c2c1 | + |
| O=[N+]([O-])c1cc([N+](=O)[O-])c2c(c1)no[n+]2[O-] | + |
